Tests used:
[1] = Locomotor activity of rats (light beam breaks); assay type: in vivo, Sprague-Dawley rats; details: compared to vehicle injected control animals
Description: Locomotor activity was monitored after injection for 2 hours.

Protein sequences, listed by entry. Tags and fused reporters are not part of them. Residues count along the entry.
UniProt Q00959, 23-1464: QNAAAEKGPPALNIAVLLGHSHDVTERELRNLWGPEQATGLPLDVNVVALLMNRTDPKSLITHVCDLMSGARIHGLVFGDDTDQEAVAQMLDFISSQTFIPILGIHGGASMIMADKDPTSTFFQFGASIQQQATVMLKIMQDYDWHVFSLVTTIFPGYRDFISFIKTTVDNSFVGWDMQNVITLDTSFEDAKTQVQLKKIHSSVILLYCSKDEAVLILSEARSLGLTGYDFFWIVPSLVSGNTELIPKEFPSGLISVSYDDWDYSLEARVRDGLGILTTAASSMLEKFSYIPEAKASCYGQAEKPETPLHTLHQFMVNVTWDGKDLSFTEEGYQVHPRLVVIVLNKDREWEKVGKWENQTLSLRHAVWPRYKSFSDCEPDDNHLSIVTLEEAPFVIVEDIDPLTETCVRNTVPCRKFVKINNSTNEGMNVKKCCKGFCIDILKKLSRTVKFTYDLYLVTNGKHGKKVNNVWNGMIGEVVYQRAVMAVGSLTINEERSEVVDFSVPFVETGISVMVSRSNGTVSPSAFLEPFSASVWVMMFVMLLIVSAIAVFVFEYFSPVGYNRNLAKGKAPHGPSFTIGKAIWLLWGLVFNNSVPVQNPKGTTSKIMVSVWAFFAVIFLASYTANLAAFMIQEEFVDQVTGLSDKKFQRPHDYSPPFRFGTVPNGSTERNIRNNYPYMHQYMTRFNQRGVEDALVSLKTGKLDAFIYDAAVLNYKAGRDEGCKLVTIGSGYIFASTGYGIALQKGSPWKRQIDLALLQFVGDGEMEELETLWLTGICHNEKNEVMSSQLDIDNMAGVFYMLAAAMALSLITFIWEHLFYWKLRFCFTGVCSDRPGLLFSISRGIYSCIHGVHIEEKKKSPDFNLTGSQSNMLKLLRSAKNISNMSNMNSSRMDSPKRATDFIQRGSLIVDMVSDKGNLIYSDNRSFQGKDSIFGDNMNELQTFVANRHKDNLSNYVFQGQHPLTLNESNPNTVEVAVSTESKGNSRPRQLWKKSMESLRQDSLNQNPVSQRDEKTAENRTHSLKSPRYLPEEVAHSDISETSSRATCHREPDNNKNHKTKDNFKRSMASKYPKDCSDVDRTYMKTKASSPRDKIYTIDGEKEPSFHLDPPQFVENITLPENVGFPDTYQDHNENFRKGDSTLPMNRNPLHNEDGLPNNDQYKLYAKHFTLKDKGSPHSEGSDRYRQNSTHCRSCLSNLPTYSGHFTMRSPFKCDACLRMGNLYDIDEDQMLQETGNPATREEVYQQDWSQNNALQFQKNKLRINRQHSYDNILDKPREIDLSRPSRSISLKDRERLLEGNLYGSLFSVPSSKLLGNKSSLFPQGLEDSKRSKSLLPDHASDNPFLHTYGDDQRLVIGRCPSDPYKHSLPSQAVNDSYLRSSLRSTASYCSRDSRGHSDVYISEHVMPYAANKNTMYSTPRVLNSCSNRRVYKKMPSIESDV

[2] = target: NR1/NR2A receptors (Rattus norvegicus, UniProt P35439+Q00959); assay: In vitro potency boost pH 6.9 vs 7.6 (NR1/NR2A, oocytes) versus infarct volume (FIG. 4); details: potency boost pH 6.9 vs 7.6 versus infarct volume

With (−) MK801 the “potency in causing induction of locomotor activity, fold less potent than (+)MK801” value [1] was “at least 10 fold” and the “mean within shaded area (criteria for superior drug performance), NR1/NR2A” value [2] was “fall within the shaded area”.

Reference: patent US20100272648A1, “Methods of Identifying Improved NMDA Receptor Antagonists” (priority 2008, published 2010)
